Results published in patent US6034134A, “1-Amino-alkylcyclohexane NMDA receptor antagonists” (Merz + Co. GmbH & Co., priority 1998, dated 2000).

Molecular target: NMDA receptor
Experiment: [3H]-(+)-MK-801 binding to rat cortical membranes
Procedure: Male Sprague-Dawley rats (200-250 g) were decapitated and their brains were removed rapidly. The cortex was dissected and homogenized in 20 volumes of ice-cold 0.32 M sucrose using a glass-Teflon homogenizer. The homogenate was centrifuged at 1000 ×g for 10 minutes. The pellet was discarded and the supernatant centrifuged at 20,000 ×g for 20 minutes. The resulting pellet was re-suspended in 20 volumes of distilled water and centrifuged for 20 minutes at 8000 ×g. Then the supernatant and the buffy coat were centrifuged three times (48,000 ×g for 20 minutes) in the presence of 50 mM Tris-HCl, pH 8.0. All centrifugation steps were carried out at 4° C. […] The amount of protein in the final membrane preparation was determined according to the method of Lowry with some modifications. […]
Membranes were re-suspended and incubated in 50 mM Tris-HCl, pH 8.0. […] Following separation and rinse, the filters were placed into scintillation liquid (5 ml; Ultima Gold) and radio activity retained on the filters was determined with a conventional liquid scintillation counter (Hewlett Packard, Liquid Scintillation Analyser).
IC50 s in patch clamp, excitotoxicity, and binding studies were calculated according to the four parameter logistic equation using the Grafit computer program (Erithacus Software, England). Ki value for binding studies were then determined according to Cheng and Prusoff. […]

NC12CC3CC(CC(C3)C1)C2 [Amantadine, reference compound]
Ki (read-out: MK-801 Ki, Table 9, Cheng-Prusoff with Kd for MK-801 of […]): 25.9 µM | IC50 (read-out: [3H] MK-801 IC50, Table 7, footnote calls the values Ki): 20.4 µM
